Laboratory results reported in ChEMBL document CHEMBL1144964, “Inhibition of mandelate racemase by alpha-fluorobenzylphosphonates” (Bioorg Med Chem Lett, 2003).
Values joined by “and” are separate entries in the source; they are usually repeats but may differ in a detail not shown here. Equal entries are not always repeated.

Experiment: pKa2 (Dissociation constant) value (phosphonate group) was determined
Type: physicochemical

| SMILES | pKa2 |
| --- | --- |
| O=P(O)(O)[C@@H](F)c1ccccc1 | 6.5 and 6.6 |
| O=P(O)(O)C(F)(F)c1ccccc1 | 5.71 |
| O=P(O)(O)C(F)c1ccccc1 (racemic) | 6.5 and 6.6 |
| O=P(O)(O)[C@H](F)c1ccccc1 | 6.5 and 6.6 |
| O=P(O)(O)Cc1ccccc1 [BENZYLPHOSPHONIC ACID] | 7.6 and 7.72 |
